Tested on: βAPP
Assay: βAPP levels in brain cortex and CSF of transgenic mice
Type: in vivo
Details: 2.5 mg/kg i.p., once daily for 3 weeks
Procedure: Greater reductions could be achieved, but, as previously reported, doses of >5 mg/kg produce cholinergic side effects for the (−)-enantiomer but not for the (+)-enantiomer.

CN1CC[C@@]2(C)c3cc(OC(=O)Nc4ccccc4)ccc3N(C)[C@@H]12 [(−)-phenserine]
reduction of βAPP levels in cerebral cortex: 10%
